Rows were chosen to be rich in hits. Some 2.3% of all compounds tested hit in one or more screens of this group.
Nrf2 ARE act: activators of Nrf2 (ARE) signaling. 410,000 compounds, 0.31% hits. Potency, µM (series often up to 46.1 µM), usual class: activators. AREc32 ARE-luciferase reporter (MCF7-derived line), luminescence, 24 h. AID 624171; note: nearly all actives have a fitted effect of over 65% in size
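Cells of the AREc32 ARE-luciferase line are plated in OPTI-MEM containing 5% FBS and left overnight at 37 deg C. Compounds are pinned in, incubation continues 24 hr, and firefly luciferase signal is then measured.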
miR-21 FLuc: raises the signal of a miR-21 reporter | AID 2288 | 340,000 tested, under 10 active | Potency, µM (series often up to 38.3 µM) | HeLa miR-21 FLuc reporter, luciferase, 48 h; active = well fitted rising curve with a large enough effect; inconclusive = small, poorly fitted or top-dose-only effect; inactive = no such curve, though single readings can be large or run the other way;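 further: miR-21 action dims this reporter so a rising signal means less miR-21 action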
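HeLa cells stably expressing CMV-driven firefly luciferase with a downstream miR-21 binding sequence, endogenously expressing miR-21, were treated with titrations (up to about 40uM final) for 48 hours at 37 degree Celsius. Luciferase luminescence was read after lysis.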
Nrf2 inh: inhibitors of Nrf2 signaling. A549 ARE-Fluc reporter, luciferase luminescence, 18-24 h. Potency, µM (series often up to 46 µM), actives largely listed as inhibitors. 360,000 compounds, 2.1% hits. AID 504444; note: nearly all actives have a fitted effect of over 60% in size
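Nrf2 activity is the BugLite luminescence, read 15 min after reagent at room temperature, following CellTiter-Fluor cytotoxicity readout (30 min, 37C). Compound titrations were applied for 18-24 h to 5000 A549 ARE_Fluc cells/well in 5% FBS OPTI-MEM.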
GRP78 ERSR act: inducers of ER stress response in human glioma cells. 420,000 compounds, 0.02% hits. Potency, µM, usual class: activators. U87-MG GRP78 promoter luciferase reporter, 16 h; note: series mostly up to about 76 µM; nearly all actives have a fitted effect of over 35% in size
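ERSR induction read as luciferase luminescence (Bright-Glo, 10 min at room temperature) in stably transfected human U87-MG glioma cells exposed to compounds for 16 h, using GRP78 as sensor.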
A549 viability: A549 cytotoxicity, counter-screen for Nrf2 inhibitors | A549 ARE-Fluc cells, CellTiter-Fluor viability, 18-24 h | AID 504648 | Potency, µM (titrated, usually from 46 µM), hits mostly inhibitors | 390,000 compounds, 0.16% hits
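Cytotoxicity counterscreen: CellTiter-Fluor fluorescence was measured in A549 ARE_Fluc cells after 18-24 h of compound exposure in a concentration series. The subsequent BugLite luminescent read reports ARE-luciferase activity.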
Mito fusion act: inhibitors of mitochondrial division or activators of mitochondrial fusion | S. cerevisiae fusion-defective mutant growth rescue, CellTiterGlo 48 h | Potency, µM (titrated, usually from 46.1 µM), actives largely listed as activators | 320,000 compounds, 0.23% hits; note: nearly all actives have a fitted effect of over 45% in size
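Luminescent cell viability in 1536-well qHTS format served as the measure of rescued growth in ts fusion-mutant S. cerevisiae cultured on non-fermentable YPEG for 48 hours at 37C.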
Large screens that a line does not name were inactive. Unless noted, calls come from the whole dose curve; as a rule, active = well fitted curve in the direction sought with a large enough effect; inconclusive = small, poorly fitted or top-dose-only effect, or another doubt; inactive = no such curve, though single readings can be large; an effect the other way counts as inactive or inconclusive.

CCCN1C(=O)/C(=C/c2c(N3CCNC(=O)C3CC(=O)OCC)nc3c(C)cccn3c2=O)SC1=S (stereo not drawn)	Nrf2 inh 20.6µM, A549 viability inconclusive
COc1ccccc1NS(=O)(=O)c1cc([N+](=O)[O-])ccc1N/N=C/c1c(C)[nH]c2ccccc12	Nrf2 inh inconclusive, A549 viability inconclusive
O=[N+]([O-])c1ccc(N/N=C/c2c[nH]c3ccccc23)c(S(=O)(=O)Nc2ccc(Cl)cc2)c1	Nrf2 inh 14.6µM, A549 viability 20.6µM
CCN1C(=NCCCCO)N[C@@H](c2ccccc2)C(C(=O)OC)=C1C	none (no result: Nrf2 ARE act, Nrf2 inh, GRP78 ERSR act, A549 viability)
COc1cc(OC)c2ccc(=O)oc2c1C(CCN1CCCC(C)C1)c1ccc2c(c1)OCO2 (stereo not drawn)	A549 viability 16.4µM
COc1cc(O)c(C(CCN2CCCC(C)C2)c2ccc3c(c2)OCO3)c(OC)c1 (stereo not drawn)	none
Cc1ccc(C)c(-n2[nH]c3c4c(ccc3c2=O)C(=O)c2ccccc2C4=O)c1	Nrf2 inh 23.1µM, A549 viability inconclusive
O=S1(=O)N=C(Oc2cccc(C(F)(F)F)c2)c2ccccc21	none (no result: Nrf2 ARE act, miR-21 FLuc, GRP78 ERSR act, Mito fusion act)
CCCCNC(=O)CSc1nc2n[nH]c(C)c2c(=N)n1-c1cccc(C)c1	none (no result: Nrf2 inh, Mito fusion act)
Cc1ccc(CNC(=O)CSc2nc3n[nH]c(C)c3c(=N)n2-c2cccc(C)c2)cc1	Nrf2 inh 14.6µM, A549 viability inconclusive
CC(=O)N1CCc2c(sc3c2c(=O)n(Cc2ccccc2)c(=O)n3Cc2cccc(Cl)c2)C1	Nrf2 inh 20.6µM (no result: Mito fusion act)
CC(C)CCC(C(=O)NC(C)c1ccccc1)C(=O)NC(C)c1ccccc1 (stereo not drawn)	none
O=C(NCc1ccncc1)c1cccc(Cn2cc(Br)cn2)c1	none (no result: Nrf2 inh)
O=S1(=O)C=C(Sc2nc3cc(Cl)ccc3o2)c2ccccc21	Nrf2 ARE act 8.91µM, Nrf2 inh inconclusive, A549 viability inconclusive
C=CCN1C(=O)/C(=c2\sc3nc(=O)c(Cc4ccc(OC)c(OC)c4)nn3c2=O)c2ccccc21	none
Brc1ccsc1-c1csc(-c2ccncc2)n1	Nrf2 ARE act 12.6µM
c1ccc(-c2csc(-c3ccncc3)n2)cc1	none
CC(C)(C)n1ncc2c(=O)n(Cc3ccc(Cl)c(C(F)(F)F)c3)cnc21	none (no result: Nrf2 ARE act, miR-21 FLuc, Nrf2 inh, A549 viability, Mito fusion act)
CCOC(=O)c1c(C)[nH]c(C(=O)N2CCc3cc(OC)c(OC)cc3C2)c1C	Nrf2 inh 23.1µM, A549 viability inconclusive (no result: miR-21 FLuc)
COc1cc2c(cc1OC)CN(C(=O)c1ccc([N+](=O)[O-])o1)CC2	Nrf2 ARE act 12.6µM, GRP78 ERSR act inconclusive, A549 viability inconclusive
Cc1cc(NC(=O)c2cccc(S(=O)(=O)N3CC(c4ccccc4)CC3=O)c2)no1 (stereo not drawn)	Nrf2 inh inconclusive
O=C(CSc1nc(-c2ccc(Cl)cc2)cs1)Nc1cccc([N+](=O)[O-])c1	Nrf2 inh 16.4µM
Cn1c(=O)oc2cc(S(=O)(=O)N3CCCC(C(=O)N4CCN(c5ccccc5F)CC4)C3)ccc21 (stereo not drawn)	Nrf2 inh inconclusive (no result: Mito fusion act)
O=C(NCC1OCCc2ccccc21)c1ccc(NC(=O)c2ccccc2Cl)cc1 (stereo not drawn)	Nrf2 inh 20.6µM
CCCCN1C(=O)C(O)(CC(=O)c2ccc(C)cc2C)c2cc(Br)ccc21 (stereo not drawn)	Nrf2 inh 25.9µM, A549 viability inconclusive (no result: Mito fusion act)
O=C(CC1(O)C(=O)N(CCc2ccccc2)c2ccc(Br)cc21)c1ccc(F)cc1 (stereo not drawn)	miR-21 FLuc inconclusive, Nrf2 inh inconclusive (no result: Mito fusion act)
COc1ccc(C(=O)CC2(O)C(=O)N(CCc3ccccc3)c3ccc(Br)cc32)cc1OC (stereo not drawn)	Nrf2 inh 23.1µM, A549 viability inconclusive (no result: Mito fusion act)
CCn1c(=S)sc2c(=O)n(CC(=O)Nc3cccc(OC)c3)c(C)nc21	none
Cc1cc(NC(=O)C(Cl)c2ccccc2)no1 (stereo not drawn)	Nrf2 ARE act 12.6µM, Nrf2 inh inconclusive
CCC(c1ccccc1)c1noc(CCN(CC)CC)n1 (stereo not drawn)	none (no result: miR-21 FLuc, Nrf2 inh, A549 viability, Mito fusion act)
CC(=O)N1CCOc2ccc(S(=O)(=O)Nc3cccc(C)n3)cc21	none
O=C(CN1CCN(Cc2ccc(Cl)cc2)C1=O)NCCCN1CCN(c2ccc(F)cc2)CC1	none (no result: Nrf2 inh)
Cc1ccccc1CN1CCN(CC(=O)NCCCN2CCN(c3ccc(F)cc3)CC2)C1=O	Nrf2 inh 11.6µM
N#CCCN(Cc1ccccc1)C(=O)Nc1ccc2c(c1)CCO2	none
CC(=O)c1c(C)[nH]c(C(=O)OCC(=O)c2c(N)n(CC(C)C)c(=O)n(C)c2=O)c1C	Nrf2 inh 18.4µM (no result: miR-21 FLuc)
CCOc1ccccc1OCC(=O)OCC(=O)c1c(N)n(CC(C)C)c(=O)n(C)c1=O	Nrf2 inh inconclusive (no result: miR-21 FLuc)
Cc1nn(-c2ccccc2)c(C)c1C(=O)OCC(=O)c1c(N)n(CC(C)C)c(=O)n(C)c1=O	Nrf2 inh 5.8µM, A549 viability inconclusive
COc1ccc(CCC(=O)OCC(=O)c2c(N)n(CC(C)C)c(=O)n(C)c2=O)cc1	Nrf2 inh 23.1µM
CCC(C(=O)OCC(=O)c1c(N)n(CC(C)C)c(=O)n(C)c1=O)c1ccccc1 (stereo not drawn)	Nrf2 inh 23.1µM (no result: miR-21 FLuc)
Cc1noc(C)c1S(=O)(=O)N(C)C[C@@H]1OCc2cnnn2CCCC(=O)N([C@H](C)CO)C[C@@H]1C	none (no result: miR-21 FLuc, Nrf2 inh, A549 viability, Mito fusion act)
COc1ccc(CCN2CC(C(=O)N(C)Cc3ccc(C)o3)CCC2=O)cc1 (stereo not drawn)	Nrf2 inh inconclusive
COc1cccc(CN(C)C(=O)c2cccc(S(=O)(=O)Nc3cccc(C)c3)c2)c1OC	none (no result: miR-21 FLuc, Mito fusion act)
CCOc1ccc(-n2cnc3sc4c(c3c2=O)CCCC4)cc1	none
CC(C)Cn1c(N)c(C(=O)COC(=O)C2CCCCC2)c(=O)n(C)c1=O	Nrf2 inh inconclusive
CC(C)Cn1c(N)c(C(=O)COC(=O)C2Cc3ccccc3CN2S(C)(=O)=O)c(=O)n(C)c1=O (stereo not drawn)	Nrf2 inh 20.6µM (no result: miR-21 FLuc)
OC(Cc1ccnc2ccccc12)C(Cl)(Cl)Cl (stereo not drawn)	Nrf2 inh 18.4µM (no result: miR-21 FLuc, Mito fusion act)
CN1C2=CC=CC=CC2=[N+](C)C12C=CC(=[N+]([O-])[O-])C=C2[N+](=O)[O-] (stereo not drawn)	Nrf2 inh 23.1µM, A549 viability 18.4µM
CC(/C=C/C(=O)c1ccc(C)cc1)=C\c1ccccc1	Nrf2 ARE act 11.2µM
NS(=O)(=O)c1ccc(N/N=C2/CCCCC2C2CCCCC2)c([N+](=O)[O-])c1 (stereo not drawn)	Nrf2 inh 20.6µM, A549 viability inconclusive
Cc1ccccc1Cn1nc(C)c(NC(=O)c2noc3c2CC(C(C)(C)C)CC3)c1C (stereo not drawn)	Nrf2 inh 8.2µM

Screening data as filed in PubChem BioAssay.
